The target in the experiment is T1, human TPH1 (Homo sapiens, UniProt P17752).
T1 sequence (P17752 1-444): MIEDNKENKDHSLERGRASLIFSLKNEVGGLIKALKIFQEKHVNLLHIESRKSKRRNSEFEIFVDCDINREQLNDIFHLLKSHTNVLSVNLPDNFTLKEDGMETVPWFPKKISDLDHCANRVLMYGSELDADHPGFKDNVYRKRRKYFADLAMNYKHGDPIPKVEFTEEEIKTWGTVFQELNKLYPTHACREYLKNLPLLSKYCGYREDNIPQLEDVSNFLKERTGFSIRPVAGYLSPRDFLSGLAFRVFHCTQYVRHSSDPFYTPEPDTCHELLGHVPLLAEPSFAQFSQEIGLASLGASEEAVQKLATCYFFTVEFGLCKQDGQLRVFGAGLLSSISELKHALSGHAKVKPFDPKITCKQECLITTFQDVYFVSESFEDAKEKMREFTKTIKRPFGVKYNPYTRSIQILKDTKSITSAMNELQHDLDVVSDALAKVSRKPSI
Nature of the experiment: biochemical. From the text: Biochemical In Vitro Assay Using Fluorescence Readout
To generate the enzyme, full length human TPH1 is cloned into the plasmid pET20b(+) (Novagen) and expressed in E. coli. The bacterial cells are ruptured by sonication on ice and the lysate is cleared by centrifugation. The resulting protein in the pellet is re-extracted and TPH1 is purified from the obtained lysate by affinity chromatography using a pterin cosubstrate analog immobilized to the resin of the column. The protein is further purified by size exclusion chromatography to remove protein aggregates. The activity of TPH1 is determined by using a fluorescence assay. The enzyme activity assay is carried out at 15° C. with atmosphere oxygen for the duration of 60 minutes in a volume of 64 μl. […] The amount of 5-hydroxy-L-tryptophan produced during the enzymatic reaction is determined by fluorescence readout. Fluorescence, as determined at 540 nm when excited at 300 nm wavelength, increases proportionally to the 5-hydroxy-L-tryptophan formed. […] Fluorescence is measured for each well and the fluorescence at 540 nm wavelength is compared to the fluorescence of the vehicle in place of compound. […] The calculated IC50 values may fluctuate depending on the daily biochemical assay performance. […]

Each structure is given as a SMILES string. pIC50: −log10 of the molar value.

By pIC50 is commonly meant the IC50 on a negative log10 scale, so that one unit is a factor of ten. Lower therefore signals a high IC50. `CCc1cc(N2CC2)ccc1OCC(=O)N1CCc2nc3cc(C(F)(F)F)ccn3c2C1c1ccc(OC)c(OC)c1` (stereo not shown) [Example 3.1.34, 2-(4-(aziridin-1-yl)-2-ethylphenoxy)-1-(1-(3,4-dimethoxyphenyl)-7-(trifluoromethyl)-3,4-dihydroimidazo[1,2-a:5,4-c′]dipyridin-2(1H)-yl)ethan-1-one]: the negative-log IC50 (pIC50) was 7.44.

Source of the values: patent publication US20180155344A1, “TRICYCLIC PIPERIDINE COMPOUNDS” (ACTELION PHARMACEUTICALS LTD, priority 2015, published 2018).
